Experimental data as given in patent EP0374267A1, “DERIVATIVES OF PLATINUM (P) WITH A POLYANION OF DEOXYRIBONUCLEIC ACID, METHOD FOR OBTAINING THEM AND PHARMACEUTICAL ANTITUMOR PREPARATION BASED ON THEM” (priority 1988, dated 1989).

Assay: Solubility

Poly{hexakis [chlor- amminaquaplatin(II)]} - µ - desoxyribonukleat [Verbindung III]
Löslichkeit in einer Lösung, die 18 mMol/l NaCl und 1,8 mMol/l Natriumzitrat enthält: 0,005% | Löslichkeit in Wasser (20°C): 0,0005%
